# Reference: patent US20130136721A1, “Compositions and Methods of Generating a Differentiated Mesodermal Cell” (THE JOHNS HOPKINS UNIVERSITY, priority 2010, published 2013)
# Test system: H9 hESC
# Experiment: Beating hEB assay (contracting hEB after forced aggregation cardiac differentiation)
# Assay type: cell-based, human
# Details: supplement in d4 onwards medium
# Source text: The cardiac differentiation protocol was divided into four distinct phases for optimization (FIG. 3A): phase 1: uniform undifferentiated growth; phase 2: hEB formation/mesoderm induction; phase 3: hEB cardiac specification; phase 4: contracting cardiomyocyte development. A simple beating hEB assay was used to sequentially assess improvements in cardiac differentiation in each of these four phases by counting the number of hEB contracting after nine days of differentiation, a time point that was identified as the day of maximum percentage contraction in the enhanced ‘prototype’ version of the protocol (FIG. 1B). […] For each variable tested, the bell-curve distribution of dose-response was determined. […]
# For forced aggregation hEB differentiations, confluent hESC or hiPSC which had been grown on a commercially available extracellular matrix, Geltrex (Invitrogen) as monolayers for 3 to 13 passages were passaged with TrypLE Select and seeded at 2.5×10^6 per T25 flask. […] Media was changed on d7 and every 3 days afterwards. hEB were visually assessed for contraction on d9 using a Nikon Eclipse Ti inverted tissue culture microscope with a TOKAI-HIT heated stage (Nikon). […]
# One single replicate consists of one 96-well plate. […] Total number of hEB assessed in this work exceeds 80,000. […]
substance,measurement,value
HSA: human serum albumin,"effect on cardiac differentiation, phase 4 medium",not required for the d4 onwards phase
